Data taken from US20220356174A1, “PYRIDIN-2-ONE COMPOUNDS USEFUL AS SMARCA2 ANTAGONISTS” (Epizyme, Inc., priority 2018, published 2022).

Amino acid sequences for entries named in this document (tags omitted). Chains listed by the source or under a name are the forms on record and can include a tag or linker. Residues count along the entry.
UniProt P51531, 2-1590 with tags or gaps: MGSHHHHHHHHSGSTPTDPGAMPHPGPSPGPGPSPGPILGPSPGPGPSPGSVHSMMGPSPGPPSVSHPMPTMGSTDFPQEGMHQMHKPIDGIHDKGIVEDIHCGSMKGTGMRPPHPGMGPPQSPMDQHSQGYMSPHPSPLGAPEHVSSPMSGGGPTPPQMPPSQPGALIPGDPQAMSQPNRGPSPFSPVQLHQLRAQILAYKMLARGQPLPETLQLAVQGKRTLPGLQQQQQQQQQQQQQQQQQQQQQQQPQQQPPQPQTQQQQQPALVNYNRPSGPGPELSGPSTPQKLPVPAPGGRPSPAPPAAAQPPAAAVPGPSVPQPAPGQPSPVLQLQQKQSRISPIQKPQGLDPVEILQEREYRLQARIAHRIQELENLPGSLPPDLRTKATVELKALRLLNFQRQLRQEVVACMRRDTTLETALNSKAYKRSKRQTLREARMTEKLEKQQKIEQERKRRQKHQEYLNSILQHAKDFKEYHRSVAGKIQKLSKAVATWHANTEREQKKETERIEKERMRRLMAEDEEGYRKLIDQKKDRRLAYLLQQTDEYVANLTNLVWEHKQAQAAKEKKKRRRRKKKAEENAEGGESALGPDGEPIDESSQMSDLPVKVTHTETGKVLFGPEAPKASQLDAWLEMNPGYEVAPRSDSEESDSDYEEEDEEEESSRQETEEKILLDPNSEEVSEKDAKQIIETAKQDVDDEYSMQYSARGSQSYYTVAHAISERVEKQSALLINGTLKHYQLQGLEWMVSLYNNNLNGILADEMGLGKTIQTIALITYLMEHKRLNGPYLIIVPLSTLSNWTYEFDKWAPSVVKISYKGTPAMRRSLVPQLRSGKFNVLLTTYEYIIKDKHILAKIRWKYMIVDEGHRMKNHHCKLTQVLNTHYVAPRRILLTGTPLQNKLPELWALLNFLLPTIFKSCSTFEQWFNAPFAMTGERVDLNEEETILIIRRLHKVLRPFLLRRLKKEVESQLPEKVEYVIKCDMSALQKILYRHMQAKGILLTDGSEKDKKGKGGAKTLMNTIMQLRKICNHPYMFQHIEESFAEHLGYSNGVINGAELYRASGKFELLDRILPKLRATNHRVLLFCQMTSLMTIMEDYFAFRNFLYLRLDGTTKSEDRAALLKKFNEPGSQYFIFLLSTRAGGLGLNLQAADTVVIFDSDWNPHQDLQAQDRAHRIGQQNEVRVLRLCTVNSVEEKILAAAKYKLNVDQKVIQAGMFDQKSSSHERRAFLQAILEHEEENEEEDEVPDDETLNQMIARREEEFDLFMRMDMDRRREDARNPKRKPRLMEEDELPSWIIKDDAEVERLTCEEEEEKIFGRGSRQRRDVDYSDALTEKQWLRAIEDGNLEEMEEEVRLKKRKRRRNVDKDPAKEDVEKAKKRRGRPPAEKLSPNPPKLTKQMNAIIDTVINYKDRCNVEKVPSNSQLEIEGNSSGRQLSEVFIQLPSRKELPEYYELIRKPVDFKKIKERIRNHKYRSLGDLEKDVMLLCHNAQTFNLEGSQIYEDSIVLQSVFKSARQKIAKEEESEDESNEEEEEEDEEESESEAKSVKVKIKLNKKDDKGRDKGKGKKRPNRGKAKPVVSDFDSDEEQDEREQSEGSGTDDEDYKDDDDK
UniProt P51532, whole entry: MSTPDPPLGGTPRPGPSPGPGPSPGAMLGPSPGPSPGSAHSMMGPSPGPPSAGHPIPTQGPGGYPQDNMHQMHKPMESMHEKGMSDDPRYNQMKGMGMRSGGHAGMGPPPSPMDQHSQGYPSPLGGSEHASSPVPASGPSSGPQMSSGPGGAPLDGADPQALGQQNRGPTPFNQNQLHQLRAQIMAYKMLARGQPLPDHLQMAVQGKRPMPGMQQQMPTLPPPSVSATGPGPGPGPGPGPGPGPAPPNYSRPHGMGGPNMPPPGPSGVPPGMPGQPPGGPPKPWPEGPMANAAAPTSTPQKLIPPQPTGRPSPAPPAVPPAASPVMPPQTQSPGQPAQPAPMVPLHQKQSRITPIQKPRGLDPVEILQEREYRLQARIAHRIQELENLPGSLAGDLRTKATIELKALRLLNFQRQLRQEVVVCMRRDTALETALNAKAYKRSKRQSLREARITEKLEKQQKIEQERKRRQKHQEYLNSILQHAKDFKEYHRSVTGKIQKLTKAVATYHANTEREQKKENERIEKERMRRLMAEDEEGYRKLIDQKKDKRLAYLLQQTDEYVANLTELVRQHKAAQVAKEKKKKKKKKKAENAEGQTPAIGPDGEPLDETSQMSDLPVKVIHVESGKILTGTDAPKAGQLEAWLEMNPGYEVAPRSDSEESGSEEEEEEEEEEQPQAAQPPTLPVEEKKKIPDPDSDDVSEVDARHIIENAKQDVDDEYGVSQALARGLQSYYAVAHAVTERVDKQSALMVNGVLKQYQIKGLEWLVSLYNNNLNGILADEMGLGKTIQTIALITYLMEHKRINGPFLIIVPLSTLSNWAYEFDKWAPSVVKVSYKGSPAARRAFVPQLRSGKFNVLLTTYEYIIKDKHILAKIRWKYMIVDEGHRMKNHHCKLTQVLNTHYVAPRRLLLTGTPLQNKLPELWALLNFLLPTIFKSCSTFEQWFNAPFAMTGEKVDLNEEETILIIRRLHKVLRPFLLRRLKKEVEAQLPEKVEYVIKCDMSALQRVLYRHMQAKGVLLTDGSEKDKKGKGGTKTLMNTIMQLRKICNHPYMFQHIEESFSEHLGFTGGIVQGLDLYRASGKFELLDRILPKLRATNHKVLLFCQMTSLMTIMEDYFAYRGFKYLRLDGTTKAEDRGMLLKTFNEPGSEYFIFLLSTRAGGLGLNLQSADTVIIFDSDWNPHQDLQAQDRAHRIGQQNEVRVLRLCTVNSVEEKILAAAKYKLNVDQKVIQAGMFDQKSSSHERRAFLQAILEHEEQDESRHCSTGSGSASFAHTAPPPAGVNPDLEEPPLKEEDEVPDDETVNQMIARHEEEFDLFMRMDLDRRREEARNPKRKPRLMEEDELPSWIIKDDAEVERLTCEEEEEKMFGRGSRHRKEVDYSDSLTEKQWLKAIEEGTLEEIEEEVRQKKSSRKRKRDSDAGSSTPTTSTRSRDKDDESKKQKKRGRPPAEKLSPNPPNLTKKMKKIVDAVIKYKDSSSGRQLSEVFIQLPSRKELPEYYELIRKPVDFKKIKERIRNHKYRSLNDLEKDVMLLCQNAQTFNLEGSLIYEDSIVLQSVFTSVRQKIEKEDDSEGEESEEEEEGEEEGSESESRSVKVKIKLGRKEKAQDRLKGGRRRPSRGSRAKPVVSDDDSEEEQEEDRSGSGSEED

Legend:
[1] = target: FL-SMARCA2 (full-length human SMARCA2 isoform 1) (Homo sapiens, UniProt P51531); assay: SMARCA2 ATPase activity assay (ADP-Glo, chicken mononucleosome substrate)
Protocol: (§1) General Materials. Adenosine 5′-triphosphate disodium salt hydrate (ATP), Bicine, bovine skin gelatin (BSG), dimethylsulfoxide (DMSO), doxorubicin, glycerol, HEPES, NP-40, phenylmethanesulfonyl fluoride (PMSF), Tris-HCl, Tris(2-carboxyethyl)phosphine hydrochloride solution (TCEP) and Tween 20 were commercially available.
(§2) Substrates. Chicken erythrocyte mononucleosomes were prepared from fresh chicken blood collected into anticoagulant and filtered through cheesecloth. The filtered chicken blood was diluted in buffer A (10 mM Tris-HCl, pH 7.4, 10 mM NaCl, 3 mM MgCl2) and centrifuged at 500 g for 15 minutes to collect the erythrocytes. Erythrocyte nuclei were harvested by resuspending the pellets in buffer A containing 0.3% NP-40 detergent. The mixture was stirred with a magnetic bar for 10 mins and centrifuged at 4000 g for 10 minutes. Resuspension, stirring and centrifugation was repeated twice more before the final nuclei pellet was resuspended in buffer A+0.3% NP-40 and stored at −80° C. until purification. For nucleosome purification, nuclei aliquots were rapidly thawed and washed five times with buffer B (10 mM Tris-HCl, pH 7.4, 1 mM CaCl2), 1 mM PMSF) and collected by centrifugation at 2800 g for 10 minutes. Pellets were resuspended in buffer B and treated with 100 U/mL micrococcal nuclease for 40 minutes at 37° C. The reaction was terminated by the addition of 2 mM EDTA and was centrifuged at 2800 g for 10 minutes. The nuclei were then lysed by resuspending the pellet in 1 mM EDTA and 1 mM PMSF and passing the mixture through a 22G needle 4 to 5 times. The solution was then centrifuged at 15,000 g for 20 minutes and the supernatant was collected. The remaining pellet was lysed through the syringe twice more and the supernatants were pooled after centrifugation. The pooled supernatants were further purified by size exclusion chromatography (GE Sephacryl S300 HR 50/100) in buffer C (10 mM HEPES, pH 7.5, 10 mM KCl, 1 mM EDTA, 1 mM PMSF, 10% glycerol). Fractions were analyzed by agarose gel electrophoresis and SDS-PAGE and fractions containing mononucleosomes were pooled and stored at −80° C.
Molecular Biology: Full-length human SMARCA2 isoform 1 (P51531) transcript clone was amplified from a cDNA library incorporating an N-terminal HIS tag (MGSHHHHHHHHSG) fused directly to Ser2 of SMARCA2 and a C-FLAG tag (YKDDDDK) fused directly to Glu1590 of SMARCA2. The amplified gene was subcloned into pFastBacI (Life Technologies).
Protein Expression: Recombinant baculovirus were generated and protein over-expression was accomplished by infecting exponentially growing Sf21 insect cell culture at 1.24×10^6 cell/ml with an MOI of 0.1. Infections were carried out for 76 hours, harvested by centrifugation, and stored at −80° C. for purification.
Expressed full-length SMARCA2 was purified from cell paste by FLAG affinity chromatography followed by anion exchange chromatography. The protein was dialyzed into a storage buffer containing 25 mM HEPES, 300 mM KCl, 10% Glycerol, pH 7.9, 1 mM TCEP and 0.01% Tween-20. The purity of the protein was measured as 74% using micro-capillary based gel electrophoresis.
The SMARCA2 or SMARCA4 ATPase assays were identical. The SMARCA2 or SMARCA4 ATPase assays were performed in a buffer consisting of 20 mM Bicine (pH 7.5), 10 mM KCl, 1 mM MgCl2, 1 mM TCEP, 0.005% BSG, and 0.002% Tween 20, prepared on the day of use. […]

[2] = target: FL-SMARCA4 (Homo sapiens, UniProt P51532); assay: SMARCA4 ATPase activity assay (ADP-Glo, chicken mononucleosome substrate)
Protocol: as §1, §2
The SMARCA2 or SMARCA4 ATPase assays were identical. The SMARCA2 or SMARCA4 ATPase assays were performed in a buffer consisting of 20 mM Bicine (pH 7.5), 10 mM KCl, 1 mM MgCl2, 1 mM TCEP, 0.005% BSG, and 0.002% Tween 20, prepared on the day of use. Compounds in 100% DMSO were 3-fold serially diluted to produce a 10 point curve for IC50 determination and 0.2 uL were transferred into polypropylene 384-well V-bottom plates (Greiner) using an Echo liquid handler (Labcyte). DMSO (0.2 uL) was added to Columns 11, 12, 23, 24, rows A-H for the maximum signal control and 0.2 uL doxorubicin, a known DNA intercalator, was added to columns 11, 12, 23, 24, rows I-P for the minimum signal control. The SMARCA2 or SMARCA4 enzyme (10 uL) was added to the compounds and allowed to incubate with the compounds for 30 min at room temperature. The SMARCA2 or SMARCA4 ATPase assay was initiated by the addition of 10 uL chicken mononucleosome and ATP mixture (final volume=20 uL). […] The ADP product generated from the SMARCA2 or SMARCA4 ATPase reaction was determined via luminescence intensity.
Where signal is luminescence intensity or Cy3/Cy5 ratio in the assay well, and min and max are the respective minimum and maximum signal controls. […]

[3] = test system: A549 cells; assay: High-throughput proliferation (HTP) assay for A549 cells (CellTiter-Glo, 7 days); conditions: read-out: A549 SMARCA2 IC50
Protocol: Thawing vials: A549 cells (ATCC #CCL-185™) were thawed from a cryovial containing approximately 1.6×10^6 cells frozen in 70% F12K medium, 20% HI-FBS and 10% DMSO. Cells were thawed by submerging the bottom half of the vial in a 37° C. water bath and gently flicked until almost thawed. The cells were transferred into a 15 mL conical tube containing 9 mL of F12K medium+10% HI-FBS and then centrifuged at 200×g for 4 min before drawing off the media without disturbing the cell pellet in order to remove the DMSO. The cells were resuspended again in 15 mL of F12K fresh complete media+10% HI-FBS and grown up in a T75 flask at 37° C. with 5% CO2 Incubator. Viability was measured to obtain baseline. […]
Day 0: Assay ready plates were prepared by dispensing 50 nL of compound or DMSO in the appropriate wells of 384-well white CulturPlates using Echo550. Using the Multiflo, A549 cells were plated at 50 μL/well in F12K complete media+10% HI-FBS+1% pen/strep at cell density determined [1,250 cells/mL (62.5 cells/well)] from growth curve.
Treated cells were incubated at 37° C., 5% CO2, relative humidity >90% for 7 days. […] Plates were incubated for 30 minutes in the dark at RT before measuring luminescence using the Envison2104. […]

[4] = test system: H358 cells; assay: High-throughput proliferation (HTP) assay for H358 cells (CellTiter-Glo, 7 days); conditions: read-out: H358 SMARCA2 IC50
Protocol: Thawing vials: H358 cells (ATCC #CRL-5807™) were thawed from a cryovial containing approximately 1.6×10^6 cells frozen in 70% RPMI 1640 medium, 20% HI-FBS and 10% DMSO. Cells were thawed by submerging the bottom half of the vial in a 37° C. water bath and gently flicked until almost thawed. The cells were removed and transferred into a 15 mL conical tube containing 9 mL RPMI 1640 medium+10% HI-FBS and then centrifuged 200×g for 4 min before drawing off the media without disturbing the cell pellet to remove the DMSO. The cells were resuspended again in 15 mL of RPMI 1640 fresh complete media+10% HI-FBS and grown up in a T75 flask at 37° C. with 5% CO2 Incubator. Viability was measured to obtain baseline.
Preparing frozen stock vials: Cell density was counted in a stock flask. […]
Day 0: Assay ready plates were prepared by dispensing 50 nL of compound stock or DMSO in the appropriate wells of 384-well white CulturPlates using Echo550. Using the Multiflo, H358 cells at 50 μL/well were plated in RPMI 1640 complete media+10% HI-FBS+1% pen/strep at cell density determined [20,000 cells/mL (1,000 cells/well)] from growth curve. […]
Using the MultiDrop liquid handler, 30 μL of CTG were added per well. […] Plates were incubated for 30 minutes in the dark at RT before measuring luminescence using the Envison2104. […]

[5] = read-out: FL-SMARCA2 IC50, Table 3.1, enzyme 5 nM, ATP 250 uM, chicken mononucleosome 10 nM, 30 min preincubation
[6] = read-out: FL-SMARCA4 IC50, Table 3.2, enzyme 5 nM, ATP 250 uM, chicken mononucleosome 10 nM, 30 min preincubation

Row | SMILES | IC50 [1, 5] [nM] | IC50 [2, 6] [nM] | IC50 ([1]; read-out: FL-SMARCA2 IC50, Table 3c.1, enzyme 5 nM, ATP 250 uM, chicken mononucleosome 10 nM, 30 min preincubation) [nM] | IC50 ([2]; read-out: FL-SMARCA4 IC>50, Table 3c.2, enzyme 5 nM, ATP 250 uM, chicken mononucleosome 10 nM, 30 min preincubation) [nM] | IC50 [3] [nM] | IC50 [4] [nM]
1 | N#Cc1cc(C(=O)Nc2cc(F)c(=O)n(CC(F)(F)F)c2)oc1C#N | 2030 | 10700 |  |  |  | 
2 | N#Cc1cc(C(=O)Nc2cc(F)c(=O)n(CC(F)(F)F)c2)oc1Cl | 21000 | > 50000 |  |  |  | 
3 | O=C(Nc1cc(Cl)c(=O)n(CCF)c1)c1cc(Cl)c(Cl)[nH]1 | 276 | 1270 |  |  |  | 
4 | O=C(Nc1cc(Cl)c(=O)n(CC(F)(F)F)c1)c1cc(Cl)c(Cl)[nH]1 | 376 | 2430 |  |  |  | 
5 | CS(=O)(=O)Cc1cccc(C#Cc2cc(C(=O)Nc3cc(F)c(=O)n(CC(F)F)c3)sc2Cl)c1 |  |  | 60.7 | 191 | 3780 | > 10000

Where two headings read alike, the source gives them in different places.
